For this data set the following is noted: Study 2, C: 324 mg capsule, fasting; 0 hours.

The values that follow come from patent US20060263427A1, “Quinine formulations” (priority 2005, published 2006).

Counter-ions that a name gives are not always drawn.

Compound `C=C[C@H]1C[N@@]2CC[C@H]1C[C@H]2[C@H](O)c1ccnc2ccc(OC)cc12` [Quinine Sulfate, cinchonan-9-ol, 6′-methoxy-, (8α,9R)-, sulfate (2:1)] displayed a QTc of 404 ms.
